# Assay results taken from ChEMBL document CHEMBL5346896, “Development of indolealkylamine derivatives as potential multi-target agents for COVID-19 treatment” (Eur J Med Chem, 2023).
# Species on record: Homo sapiens
# Assay: Selectivity ratio of pKi for displacement of 2-[125I]iodomelatonin from human melatonin MT1 receptor stably expressed in human HEK293 cell membrane to pKi for displacement of 2-[125I]iodomelatonin from human melatonin MT2 receptor stably expressed in human HEK293 cell membrane
row,Compound,Ratio pKi
1,COC(=O)NCCc1c(C(O)c2ccccc2)[nH]c2ccc(OC)cc12 (configuration not stated),0.9
2,COc1ccc2[nH]c(C(O)c3ccc(Cl)cc3)c(CCNC(C)=O)c2c1 (configuration not stated),0.86
